Assay results published in US20260232830A1, “ANTIGEN BINDING MOLECULE SPECIFICALLY BINDING TO EGFR AND MUC1, DRUG CONJUGATE THEREOF, AND MEDICAL USE THEREOF” (Jiangsu Hengrui Pharmaceuticals Co., Ltd., priority 2023, published 2026).

Test system: CHOK1-cyno-MUC1-C cells
Experiment: FACS-based determination of affinity of chimeric and humanized anti-MUC1-C antibodies
Format: binding
Set-up: key: “+” means that there was binding; “−” means that there was no binding
Settings: Table 19-2, Test 2
Description: HCC827-human-MUC1-C cells (in-house constructed overexpression stably transfected cell strain), CHOK1-cyno-MUC1-C cells (in-house constructed overexpression stably transfected cell strain), and T47D cells (human ductal breast cancer cells) were separately digested and added to a 96-well plate at 1E5 cells/well. After the plate was centrifuged at 300 g for 5 min, the supernatant was discarded, and the cells were washed once with a PBS buffer containing 2% FBS. The antibodies were 5-fold diluted from a starting concentration of 20 μg/mL using a PBS buffer containing 2% FBS to obtain a total of 8 concentration gradients. The antibody samples were added at 100 μL/well, and the cells were resuspended and incubated at 4° C. for 1 h. After the plate was centrifuged at 300 g for 5 min, the supernatant was discarded, and the cells were washed twice with a PBS buffer containing 2% FBS. […] After the plate was centrifuged at 300 g for 5 min, the supernatant was discarded, and the cells were washed twice with a PBS buffer containing 2% FBS. The cells were resuspended in 100 μL of a PBS buffer containing 2% FBS and analyzed using an instrument. […] The experimental process was the same as that in Test Example 1 “FACS-Based Determination of Affinity of Chimeric Antibodies”. In addition, CHOK1-human-MUC1-C cells (in-house constructed overexpression stably transfected cell strain) were used for evaluation.

Molecule | Qualitative determination
M6-H1L2: humanized antibody of M6: huM6VH1 + huM6VL2 (antibody) heavy: EVQLVQSGAEVKKPGASVKVSCKASGYTFTPYWIEWVRQAPGQGLEWMGEILPGTGRTNYNEKFKGRVTFTADTSTNTVYMELSSLRSEDTAVYYCARYGDDTSGGYYAVDYWGQGTTVTVSSASTKGPSVFPLAPSSKSTSGGTAALGCLVKDYFPEPVTVSWNSGALTSGVHTFPAVLQSSGLYSLSSVVTVPSSSLGTQTYICNVNHKPSNTKVDKKV[human IgG1 Fc not spelt out] light: EIVLTQSPATLSLSPGERATLSCRASESVNILGTNLIHWYQQKPGQAPKLLIYHASNLETGIPARFSGSGSRTDFTLTISSLEPEDFAVYYCLQSRKIPWTFGGGTKVEIKRTVAAPSVFIFPPSDEQLKSGTASVVCLLNNFYPREAKVQWKVDNALQSGNSQESVTEQDSKDSTYSLSSTLTLSKADYEKHKVYACEVTHQGLSSPVTKSFNRGEC | +
M6-H2L2: humanized antibody of M6: huM6VH2 + huM6VL2 (antibody) heavy: EVQLVQSGAEVKKPGASVKVSCKASGYRFIPYWIEWVRQAPGQGLEWMGEILPGTGRTNYNEKFKGRVTFTADTSTNTVYMELSSLRSEDTAVYYCARYGDDTSGGYYAVDYWGQGTTVTVSSASTKGPSVFPLAPSSKSTSGGTAALGCLVKDYFPEPVTVSWNSGALTSGVHTFPAVLQSSGLYSLSSVVTVPSSSLGTQTYICNVNHKPSNTKVDKKV[human IgG1 Fc not spelt out] light: EIVLTQSPATLSLSPGERATLSCRASESVNILGTNLIHWYQQKPGQAPKLLIYHASNLETGIPARFSGSGSRTDFTLTISSLEPEDFAVYYCLQSRKIPWTFGGGTKVEIKRTVAAPSVFIFPPSDEQLKSGTASVVCLLNNFYPREAKVQWKVDNALQSGNSQESVTEQDSKDSTYSLSSTLTLSKADYEKHKVYACEVTHQGLSSPVTKSFNRGEC | +
M6-H3L2: humanized antibody of M6: huM6VH3 + huM6VL2 (antibody) heavy: EVQLVQSGAEVKKPGASVKVSCKASGYRFIPYWIEWVRQRPGQGLEWMGEILPGTGRTNYNEKFKGRVTFTADTSTNTVYMELSSLRSEDTAVYYCARYGDDTSGGYYAVDYWGQGTTVTVSSASTKGPSVFPLAPSSKSTSGGTAALGCLVKDYFPEPVTVSWNSGALTSGVHTFPAVLQSSGLYSLSSVVTVPSSSLGTQTYICNVNHKPSNTKVDKKV[human IgG1 Fc not spelt out] light: EIVLTQSPATLSLSPGERATLSCRASESVNILGTNLIHWYQQKPGQAPKLLIYHASNLETGIPARFSGSGSRTDFTLTISSLEPEDFAVYYCLQSRKIPWTFGGGTKVEIKRTVAAPSVFIFPPSDEQLKSGTASVVCLLNNFYPREAKVQWKVDNALQSGNSQESVTEQDSKDSTYSLSSTLTLSKADYEKHKVYACEVTHQGLSSPVTKSFNRGEC | +
M6-H4L2: humanized antibody of M6: huM6VH4 + huM6VL2 (antibody) heavy: EVQLVQSGAEVKKPGASVKVSCKASGYRFIPYWIEWVRERPGHGLEWMGEILPGTGRTNYNEKFKGRVTFTADTSTNTVYMELSSLTSEDTAVYYCARYGDDTSGGYYAVDYWGQGTTVTVSSASTKGPSVFPLAPSSKSTSGGTAALGCLVKDYFPEPVTVSWNSGALTSGVHTFPAVLQSSGLYSLSSVVTVPSSSLGTQTYICNVNHKPSNTKVDKKV[human IgG1 Fc not spelt out] light: EIVLTQSPATLSLSPGERATLSCRASESVNILGTNLIHWYQQKPGQAPKLLIYHASNLETGIPARFSGSGSRTDFTLTISSLEPEDFAVYYCLQSRKIPWTFGGGTKVEIKRTVAAPSVFIFPPSDEQLKSGTASVVCLLNNFYPREAKVQWKVDNALQSGNSQESVTEQDSKDSTYSLSSTLTLSKADYEKHKVYACEVTHQGLSSPVTKSFNRGEC | +
M6-H5L2: humanized antibody of M6: huM6VH5 + huM6VL2 (antibody) heavy: EVQLVQSGAEVKKPGASVKVSCKASGYRFIPYWIEWVRERPGHGLEWMGEILPGTGRTNYNEKFKGRVTFTADTSTNTVYMELSSLTSEDTAVYYCARYGEDTSGGYYAVDYWGQGTTVTVSSASTKGPSVFPLAPSSKSTSGGTAALGCLVKDYFPEPVTVSWNSGALTSGVHTFPAVLQSSGLYSLSSVVTVPSSSLGTQTYICNVNHKPSNTKVDKKV[human IgG1 Fc not spelt out] light: EIVLTQSPATLSLSPGERATLSCRASESVNILGTNLIHWYQQKPGQAPKLLIYHASNLETGIPARFSGSGSRTDFTLTISSLEPEDFAVYYCLQSRKIPWTFGGGTKVEIKRTVAAPSVFIFPPSDEQLKSGTASVVCLLNNFYPREAKVQWKVDNALQSGNSQESVTEQDSKDSTYSLSSTLTLSKADYEKHKVYACEVTHQGLSSPVTKSFNRGEC | +
M6-H6L2: humanized antibody of M6: huM6VH6 + huM6VL2 (antibody) heavy: EVQLVQSGAEVKKPGASVKVSCKASGYRFIPYWIEWVRERPGHGLEWMGEILPGTGRTNYNEKFKGRVTFTADTSTNTVYMELSQLTSEDTAVYYCARYGEDTSGGYYAVDYWGQGTTVTVSSASTKGPSVFPLAPSSKSTSGGTAALGCLVKDYFPEPVTVSWNSGALTSGVHTFPAVLQSSGLYSLSSVVTVPSSSLGTQTYICNVNHKPSNTKVDKKV[human IgG1 Fc not spelt out] light: EIVLTQSPATLSLSPGERATLSCRASESVNILGTNLIHWYQQKPGQAPKLLIYHASNLETGIPARFSGSGSRTDFTLTISSLEPEDFAVYYCLQSRKIPWTFGGGTKVEIKRTVAAPSVFIFPPSDEQLKSGTASVVCLLNNFYPREAKVQWKVDNALQSGNSQESVTEQDSKDSTYSLSSTLTLSKADYEKHKVYACEVTHQGLSSPVTKSFNRGEC | +
M6-H7L2: humanized antibody of M6: huM6VH7 + huM6VL2 (antibody) heavy: EVQLVQSGAEVKKPGASVKVSCKASGYRFIPYWIEWVRERPGHGLEWMGEILPGTGRTNYNEKFKGRVTFTADTSTNTVYMELSSLTNEDTAVYYCARYGEDTSGGYYAVDYWGQGTTVTVSSASTKGPSVFPLAPSSKSTSGGTAALGCLVKDYFPEPVTVSWNSGALTSGVHTFPAVLQSSGLYSLSSVVTVPSSSLGTQTYICNVNHKPSNTKVDKKV[human IgG1 Fc not spelt out] light: EIVLTQSPATLSLSPGERATLSCRASESVNILGTNLIHWYQQKPGQAPKLLIYHASNLETGIPARFSGSGSRTDFTLTISSLEPEDFAVYYCLQSRKIPWTFGGGTKVEIKRTVAAPSVFIFPPSDEQLKSGTASVVCLLNNFYPREAKVQWKVDNALQSGNSQESVTEQDSKDSTYSLSSTLTLSKADYEKHKVYACEVTHQGLSSPVTKSFNRGEC | +
M6-H5L3: humanized antibody of M6: huM6VH5 + huM6VL3 (antibody) heavy: EVQLVQSGAEVKKPGASVKVSCKASGYRFIPYWIEWVRERPGHGLEWMGEILPGTGRTNYNEKFKGRVTFTADTSTNTVYMELSSLTSEDTAVYYCARYGEDTSGGYYAVDYWGQGTTVTVSSASTKGPSVFPLAPSSKSTSGGTAALGCLVKDYFPEPVTVSWNSGALTSGVHTFPAVLQSSGLYSLSSVVTVPSSSLGTQTYICNVNHKPSNTKVDKKV[human IgG1 Fc not spelt out] light: DIVMTQSPATLSLSPGERATLSCRASESVNILGTNLIHWYQQKPGQAPKLLIYHASNLETGIPARFSGSGSRTDFTLTISSLEPEDVAVYYCLQSRKIPWTFGGGTKVEIKRTVAAPSVFIFPPSDEQLKSGTASVVCLLNNFYPREAKVQWKVDNALQSGNSQESVTEQDSKDSTYSLSSTLTLSKADYEKHKVYACEVTHQGLSSPVTKSFNRGEC | +
M6-H6L3: humanized antibody of M6: huM6VH6 + huM6VL3 (antibody) heavy: EVQLVQSGAEVKKPGASVKVSCKASGYRFIPYWIEWVRERPGHGLEWMGEILPGTGRTNYNEKFKGRVTFTADTSTNTVYMELSQLTSEDTAVYYCARYGEDTSGGYYAVDYWGQGTTVTVSSASTKGPSVFPLAPSSKSTSGGTAALGCLVKDYFPEPVTVSWNSGALTSGVHTFPAVLQSSGLYSLSSVVTVPSSSLGTQTYICNVNHKPSNTKVDKKV[human IgG1 Fc not spelt out] light: DIVMTQSPATLSLSPGERATLSCRASESVNILGTNLIHWYQQKPGQAPKLLIYHASNLETGIPARFSGSGSRTDFTLTISSLEPEDVAVYYCLQSRKIPWTFGGGTKVEIKRTVAAPSVFIFPPSDEQLKSGTASVVCLLNNFYPREAKVQWKVDNALQSGNSQESVTEQDSKDSTYSLSSTLTLSKADYEKHKVYACEVTHQGLSSPVTKSFNRGEC | +
M6-H7L3: humanized antibody of M6: huM6VH7 + huM6VL3 (antibody) heavy: EVQLVQSGAEVKKPGASVKVSCKASGYRFIPYWIEWVRERPGHGLEWMGEILPGTGRTNYNEKFKGRVTFTADTSTNTVYMELSSLTNEDTAVYYCARYGEDTSGGYYAVDYWGQGTTVTVSSASTKGPSVFPLAPSSKSTSGGTAALGCLVKDYFPEPVTVSWNSGALTSGVHTFPAVLQSSGLYSLSSVVTVPSSSLGTQTYICNVNHKPSNTKVDKKV[human IgG1 Fc not spelt out] light: DIVMTQSPATLSLSPGERATLSCRASESVNILGTNLIHWYQQKPGQAPKLLIYHASNLETGIPARFSGSGSRTDFTLTISSLEPEDVAVYYCLQSRKIPWTFGGGTKVEIKRTVAAPSVFIFPPSDEQLKSGTASVVCLLNNFYPREAKVQWKVDNALQSGNSQESVTEQDSKDSTYSLSSTLTLSKADYEKHKVYACEVTHQGLSSPVTKSFNRGEC | +
